Drawing on patent US20240376607A1, “METHOD AND COMPOSITION FOR TREATING DILUTION STEAM GENERATOR SYSTEMS” (BL Technologies, Inc., priority 2021, published 2024), this text covers Liquid and Vapor for 2 substances.

A short description of this series: Autoclave V-L distribution (volatility) in DSG Water A. Format: physicochemical. Particulars: LC-MS. As to the method:
Autoclave experiments were conducted using a Parr pressure vessel. Each test was carried out for 4 days at 185° C. (˜150 psig) with DSG water containing about 150 ppm of filmer. Ammonia was pre-mixed in test solution to achieve a pH range of 8.2 to 8.8 in both the vapor and liquid phases. For each run, vapor and liquid samples were collected at the regular interval. These samples were analyzed through the liquid chromatography-mass spectrometry (LC-MS) technique to determine the filmer concentration.

On to octenyl succinic acid [OSA], for which the Liquid is, setting by setting: (Day 1, 185° C.) 69 ppm; (Day 2, 185° C.) 86 ppm; (Day 3, 185° C.) 86 ppm; (Day 4, 185° C.) 97 ppm. Besides, the Vapor runs as follows: (Day 1, 185° C.) 1.3 ppm; (Day 2, 185° C.) 1.9 ppm; (Day 3, 185° C.) 1 ppm; (Day 4, 185° C.) 2.4 ppm.

Turning to Dodecynyl Succinic Acid [DDSA], the Liquid is, setting by setting: (Day 1, 185° C.) 165 ppm; (Day 2, 185° C.) 177 ppm; (Day 3, 185° C.) 190 ppm; (Day 4, 185° C.) 190 ppm. Besides, the Vapor reads like this: (Day 1, 185° C.) 1.6 ppm; (Day 2, 185° C.) 1.8 ppm; (Day 3, 185° C.) 2.8 ppm; (Day 4, 185° C.) 3.5 ppm.
